Test results published in patent US5955489A, “Taxane derivatives, the preparation thereof and formulations containing them” (Indea S.p.A., priority 1996, dated 1999).

Test system: Line MCF7-ADRr (adriamycin-resistant)
Assay: cytotoxicity on an adriamycin-resistant cell line (Line MCF7-ADRr)
Format: cell-based
Conditions: read-out: IC50 Line MCF7-ADRr

Row | SMILES | IC50 [nM]
1 | CC(=O)O[C@@]12CO[C@@H]1CC1NN=C3C(=O)C4=C(C)[C@@H](OC(=O)[C@H](O)[C@@H](NC(=O)c5ccccc5)c5ccccc5)C[C@@](O)([C@@H](OC(=O)c5ccccc5)[C@H]2[C@]31C)C4(C)C (stereo partly drawn) [Compound of example 2, 10-deacetyl-10-dehydro-Paclitaxel pyrazoline] | 600
2 | CC(=O)O[C@@]12CO[C@@H]1CC1NN=C3C(=O)C4=C(C)[C@@H](OC(=O)[C@H](O)[C@H](CC(C)C)NC(=O)OC(C)(C)C)C[C@@](O)([C@@H](OC(=O)c5ccccc5)[C@H]2[C@]31C)C4(C)C (stereo partly drawn) [Compound of example 5, 13-(N-Boc-3'-isobutyl)-isoserinyl-10-dehydrobaccatine III pyrazoline] | 190
3 | CC(=O)O[C@@]12CO[C@@H]1CC1NN=C3C(=O)C4=C(C)[C@@H](OC(=O)[C@H](O)[C@@H](NC(=O)OC(C)(C)C)c5ccccc5)[C@@H]5OC(=O)O[C@]5([C@@H](OC(=O)c5ccccc5)[C@H]2[C@]31C)C4(C)C (stereo partly drawn) [Compound of example 6, 13-(N-Boc-phenyl-isoserinyl)-1,14-carbonate10-dehydro-10-deacetyl-baccatine III pyrazoline] | 102
